Assay results reported in ChEMBL document CHEMBL3864121, “Development of ebsulfur analogues as potent antibacterials against methicillin-resistant Staphylococcus aureus” (Bioorg Med Chem, 2016).

Tests used:
Enterobacter cloacae = experiment: Antibacterial activity against Enterobacter cloacae ATCC 13047 measured after overnight incubation by broth double-dilution method; assay type: functional; details: subsp. cloacae ATCC 13047
Method in brief: (§1)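 MIC by broth double-dilution in liquid Mueller-Hinton medium. Values are reported in µg/mL.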

[1] = tested on: Staphylococcus epidermidis; experiment: Antibacterial activity against Staphylococcus epidermidis ATCC 12228 measured after overnight incubation by broth double-dilution method; assay type: functional
Method in brief: (§2)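 MIC by broth double-dilution in Mueller-Hinton medium. Re-testing at the time-kill inoculum used 1×10^6 CFU/mL.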

Salmonella enterica = experiment: Antibacterial activity against Salmonella enterica ATCC 14028 measured after overnight incubation by broth double-dilution method; assay type: functional; method in brief: as §2
Pseudomonas aeruginosa = experiment: Antibacterial activity against Pseudomonas aeruginosa ATCC 27853 measured after overnight incubation by broth double-dilution method; assay type: functional; method in brief: as §2
[2] = tested on: Staphylococcus epidermidis; experiment: Antibiofilm activity against Staphylococcus epidermidis ATCC 35984 assessed as reduction of biofilm at […] measured after 24 hrs by crystal violet staining based method relative to control; assay type: functional, RP62A; set-up: scale not given: the % may be the effect or the level left
[3] = tested on: Staphylococcus epidermidis; experiment: Antibacterial activity against Staphylococcus epidermidis ATCC 35984 measured after overnight incubation by broth double-dilution method; assay type: functional; details: RP62A; method in brief: as §2
Acinetobacter baumannii = experiment: Antibacterial activity against Acinetobacter baumannii ATCC 19606 measured after overnight incubation by broth double-dilution method; assay type: functional; method in brief: as §2
Enterococcus faecalis [4] = experiment: Antibacterial activity against Enterococcus faecalis ATCC 29212 measured after overnight incubation by broth double-dilution method; assay type: functional; method in brief: as §2
Escherichia coli = experiment: Antibacterial activity against Escherichia coli MC1061 measured after overnight incubation by broth double-dilution method; assay type: functional; method in brief: as §1
Klebsiella pneumoniae = experiment: Antibacterial activity against Klebsiella pneumoniae ATCC 27736 measured after overnight incubation by broth double-dilution method; assay type: functional; method in brief: as §1
Enterococcus faecalis [5] = experiment: Antibacterial activity against Enterococcus faecalis ATCC 49533 measured after overnight incubation by broth double-dilution method; assay type: functional; method in brief: as §2
Enterococcus = experiment: Antibacterial activity against Vancomycin-resistant Enterococcus measured after overnight incubation by broth double-dilution method; assay type: functional; method in brief: as §1

## O=c1c2ccccc2sn1-c1ccccc1
Enterobacter cloacae
  MIC: 125 µg/mL (≈ 550 µM)
[1]
  MIC: 125 µg/mL (≈ 550 µM)
Salmonella enterica
  MIC: 125 µg/mL (≈ 550 µM)
Pseudomonas aeruginosa
  MIC: 62.5 µg/mL (≈ 275 µM)
[2]
  Activity: 50%
[3]
  MIC: 1 µg/mL (≈ 4.4 µM)
Acinetobacter baumannii
  MIC: 15.6 µg/mL (≈ 68.6 µM)
Enterococcus faecalis [4]
  MIC: 31.3 µg/mL (≈ 138 µM)
Escherichia coli
  MIC: 31.3 µg/mL (≈ 138 µM)
Klebsiella pneumoniae
  MIC: 62.5 µg/mL (≈ 275 µM)
Enterococcus faecalis [5]
  MIC: 15.6 µg/mL (≈ 68.6 µM)
Enterococcus
  MIC: 1 µg/mL (≈ 4.4 µM)

Values after ≈ are worked out from the molar mass of the structure shown.
